Values of other authors as cited in paper PMC6153967 (CNS Drugs, 2018).

Details: cited from earlier work

## aducanumab: anti-amyloid antibody
Dose titration regimen, APOE4 carriers
  Incidence of ARIA-E: ~ 35%
Two highest doses
  Incidence of ARIA-E: ~ 40%

Like-named read-outs stand apart in the source and are kept apart here.
